# Bioassay records (PubChem)
# Mito fusion yeast: inhibitors of mitochondrial division or activators of mitochondrial fusion. S. cerevisiae fusion-defective mutant growth rescue, CellTiterGlo 48 h. Potency, µM (top dose mostly 46.1 µM), inactives show top-dose growth rescue (activation), usual class: activators. 0.23% of 320,000 active; note: potency is the fitted concentration of half-maximal effect; % of control where 0% means no effect; nearly all actives have a fitted effect of over 45% in size
#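 Compounds are tested for their ability to restore growth of mitochondrial fusion-defective yeast strains at non-permissive 37C in YPEG medium over 48 hours. Viability is quantified by luciferase luminescence.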
# A549 viability: kills or reduces viability of A549 cells in Nrf2 counter-screen. 0.16% of 390,000 active. AID 504648. A549 ARE-Fluc cells, CellTiter-Fluor viability, 18-24 h. Potency, µM (doses to about 46 µM), for the others: at the top dose activity change, negative = cytotoxicity, most hits filed as inhibitors; note: potency is the fitted concentration of half-maximal effect; % is set by controls: 0 for no effect and ±100 for the full control effect
#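 A549 ARE_Fluc cells in 5% FBS OPTI-MEM were exposed to compounds in concentration-response for 18-24 h at 37 deg C. Viability was read by CellTiter-Fluor fluorescence (Ex 405/Em 525) after 30 min, before the luciferase read.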
# miR-21 FLuc: miR-21 reporter, rising signal; HeLa miR-21 FLuc reporter, luciferase, 48 h; Potency, µM (titrated, usually from 38.3 µM), without a hit: top-dose reporter change, positive = more light; AID 2288; 340,000 tested, under 10 active; active = well fitted rising curve with a large enough effect; inconclusive = small, poorly fitted or top-dose-only effect; inactive = no such curve, though single readings can be large or run the other way;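 further: % of control where 0% means no effect; miR-21 action dims this reporter so a rising signal means less miR-21 action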
#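 HeLa cells endogenously expressing miR-21, stably carrying CMV-driven firefly luciferase with a downstream miR-21 binding site, 2000 cells/well. Titrations up to approximately 40 uM, 48 hours; luciferase luminescence read.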
# Nrf2 block: inhibitors of Nrf2 signaling; Potency, µM (series often up to 46 µM), for the others: top-dose activity change, negative = inhibition, usual class: inhibitors; 2.1% of 360,000 active; A549 ARE-Fluc reporter, luciferase luminescence, 18-24 h; note: potency is the fitted concentration of half-maximal effect; % is set by controls: 0 for no effect and ±100 for the full control effect; nearly all actives have a fitted effect of over 60% in size
#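 Concentration-response testing used A549 ARE_Fluc cells at 5000 cells/well. Following an 18-24 h compound incubation, viability was read by fluorescence (Ex 405/Em 525) and luciferase output by luminescence.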
# Nrf2 activator: activates Nrf2 signaling | AREc32 ARE-luciferase reporter (MCF7-derived line), luminescence, 24 h | Potency, µM (highest dose often 46.1 µM), without a hit: top-dose activation, hits mostly activators | 0.31% of 410,000 active | AID 624171; note: potency is the fitted concentration of half-maximal effect; % of control where 0% means no effect; nearly all actives have a fitted effect of over 65% in size
#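 AREc32 cells carrying an ARE-driven firefly luciferase, 1000 cells/well in OPTI-MEM with 5% FBS, dosed after overnight attachment and incubated 24 hr at 37 deg C. Steady-Glo luminescence read after 30 min at RT.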
# An asterisk follows results filed as active; ? = inconclusive; · = not tested or not shown; ! = not active in a repeat; [ ] = dose if it differs, or a comment. Sampled rows, rich in hits. Any-hit rate of the full collection: about 2.3%. Calls come from the whole dose curve; as a rule, active = well fitted curve in the direction sought with a large enough effect; inconclusive = small, poorly fitted or top-dose-only effect, or another doubt; inactive = no such curve, though single readings can be large; an effect the other way counts as inactive or inconclusive.
item | SMILES | Mito fusion yeast | A549 viability | miR-21 FLuc
1 | CCNC(=S)N(CCc1cccc(C)c1)Cc1cc2cc(OC)c(OC)cc2[nH]c1=O | 0% | -12% | -4%
2 | CCNC(=S)N(CCc1ccccc1C)Cc1cc2cc(OC)c(OC)cc2[nH]c1=O | -3% | 3% | 2%
3 | O=C1c2ccccc2NC(c2ccc(Br)s2)N1O (stereo not drawn) | · | -17% | ·
4 | CN(Cc1ccccc1)c1nc(N)c([N+](=O)[O-])c(NCc2ccccc2)n1 | 11µM* | -9% | -13%
5 | COc1cc2c(cc1OC)C(c1ccc(-c3ccc(Cl)cc3Cl)o1)=NCC2 | 4% | ? | 26%
6 | COc1cc2c(cc1OC)C(c1ccc(-c3ccc(Cl)c(Cl)c3)o1)=NCC2 | 26% | · | ?
7 | COc1cc2c(cc1OC)C(c1ccc(-c3cc(Cl)ccc3Cl)o1)=NCC2 | -7% | ? | -5%
8 | COc1cccc(C2C(C#N)=C(NC(=O)CCc3ccccc3)Oc3ccc4ccccc4c32)c1 (stereo not drawn) | · | -3% | ·

item | Nrf2 block | Nrf2 activator
1 | 23µM* | 0%
2 | -4% | -1%
3 | 18µM* | 6%
4 | ? | 3%
5 | ? | 4%
6 | 9.2µM* | 3%
7 | 16µM* | -1%
8 | 10% | ·

# The last 3 entries of the section above are carried over, then new ones follow.
item | SMILES | Mito fusion yeast | A549 viability | miR-21 FLuc
6 | COc1cc2c(cc1OC)C(c1ccc(-c3ccc(Cl)c(Cl)c3)o1)=NCC2 | 26% | · | ?
7 | COc1cc2c(cc1OC)C(c1ccc(-c3cc(Cl)ccc3Cl)o1)=NCC2 | -7% | ? | -5%
8 | COc1cccc(C2C(C#N)=C(NC(=O)CCc3ccccc3)Oc3ccc4ccccc4c32)c1 (stereo not drawn) | · | -3% | ·
9 | COc1ccc(C2CC(=O)c3c(C)nc(N4CCN(Cc5ccccc5)CC4)nc3C2)cc1OC (stereo not drawn) | 15% | · | ?
10 | COc1cc(C2CC(=O)c3cnc(N4CCN(Cc5ccccc5)CC4)nc3C2)cc(OC)c1OC (stereo not drawn) | 14% | ? | 17%
11 | Cc1cccc(-n2ncc3c2CCCC3NC(=O)CCc2cccnc2)c1C (stereo not drawn) | ? | -4% | 10%
12 | Cc1cccc(-n2ncc3c2CCCC3NC(=O)Cc2c(C)noc2C)c1C (stereo not drawn) | 0% | -9% | 12%
13 | O=C(c1ccco1)N1CCN(C(=O)c2ccc(-c3ccccc3Cl)o2)CC1 | 24% | 4% | ·
14 | O=C(c1ccc(-c2ccccc2Cl)o1)N1CCN(c2ccccc2O)CC1 | 18µM* | 3% | ·
15 | COc1ccc(C(=O)Nc2nnc(S(=O)(=O)N(C)c3ccc(C)cc3)s2)cc1 | · | 0% | -33%
16 | c1ccc(CN(Cc2ccccc2)Cc2nnc(-c3cc4ccccc4[nH]3)o2)cc1 | · | 0% | ·

item | Nrf2 block | Nrf2 activator
6 | 9.2µM* | 3%
7 | 16µM* | -1%
8 | 10% | ·
9 | 18µM* | 0%
10 | ? | 0%
11 | 7.3µM* | -1%
12 | 8.2µM* | -1%
13 | 9% | 10%
14 | 7% | 8%
15 | ? | 0%
16 | 15% | ·

item | SMILES | Mito fusion yeast | A549 viability | miR-21 FLuc
17 | O=C(NCc1ccc(Cl)cc1)C(=O)NCC(c1cccnc1)N1CCN(c2ccc(F)cc2)CC1 (stereo not drawn) | 19% | -21% | 27%
18 | O=S(=O)(c1ccc2c(c1)OCCO2)N1CCN(S(=O)(=O)c2cccc[n+]2[O-])CC1 | · | 1% | ·
19 | O=C(Nc1cccc([N+](=O)[O-])c1)Nc1cccs1 | 9% | 2% | 12%
20 | COC(=O)c1sccc1NC(=O)Nc1cccc([N+](=O)[O-])c1 | 0% | -2% | -1%
21 | CS(=O)(=O)Nc1ccc(C(=O)Nc2cccc([N+](=O)[O-])c2)cc1 | 5% | -5% | -6%
22 | CN(C)S(=O)(=O)c1ccc(Cl)c(C(=O)Nc2cccc([N+](=O)[O-])c2)c1 | 3% | -1% | 16%
23 | O=C(O)c1cccc(NS(=O)(=O)c2ccc(Cl)c(C(=O)Nc3cccc([N+](=O)[O-])c3)c2)c1 | · | 0% | ·
24 | COc1cc(NC(=O)C(NC(=O)C2CCC(C)CC2)C(C)C)cc(OC)c1OC (stereo not drawn) | · | 8% | -7%
25 | CC#C[C@]1(O)CC[C@H]2[C@@H]3CCC4=CC(=O)CCC4=C3[C@@H](c3ccc(N(C)C)cc3)C[C@@]21C | 9.2µM*! | -19% | 16%
26 | O=C(/C=C/c1ccc(O)c(O)c1)OCCc1ccccc1 | 2.6µM* | -19% | ·
27 | CCCOc1ccc(C(=O)Nc2ccc3oc(-c4ccc(N(C)C)cc4)nc3c2)cc1 | · | 3% | -27%

item | Nrf2 block | Nrf2 activator
17 | 21µM* | 4%
18 | 11% | ·
19 | 1% | 7.1µM*
20 | -1% | 4%
21 | -16% | 6.3µM*
22 | 9.2µM* | 13%
23 | 4% | 0%
24 | 4%[9.27 µM] | 0%
25 | 23µM* | 0%
26 | -25% | ?
27 | -5% | 3%
